Assay results reported in article PMC3982398 (Biochemical pharmacology, 2009).

Substrate: COc1ccc(Cl)cc1C(=O)NCCc1ccc(S(=O)(=O)NC(=O)NC2CCCCC2)cc1
Assay: cells, lysate or membranes named
Format: in vitro ADME, human
Conditions: apparent Km, 37.0 °C

B1: cDNA-expressed CYP 1A1 (Homo sapiens) (protein)
chain: MLFPISMSATEFLLASVIFCLVFWVIRASRPQVPKGLKNPPGPWGWPLIGHMLTLGKNPHLALSRMSQQYGDVLQIRIGSTPVVVLSGLDTIRQALVRQGDDFKGRPDLYTFTLISNGQSMSFSPDSGPVWAARRRLAQNGLKSFSIASDPASSTSCYLEEHVSKEAEVLISTLQELMAGPGHFNPYRYVVVSVTNVICAICFGRRYDHNHQELLSLVNLNNNFGEVVGSGNPADFIPILRYLPNPSLNAFKDLNEKFYSFMQKMVKEHYKTFEKGHIRDITDSLIEHCQEKQLDENANVQLSDEKIINIVLDLFGAGFDTVTTAISWSLMYLVMNPRVQRKIQEELDTVIGRSRRPRLSDRSHLPYMEAFILETFRHSSFVPFTIPHSTTRDTSLKGFYIPKGRCVFVNQWQINHDQKLWVNPSEFLPERFLTPDGAIDKVLSEKVIIFGMGKRKCIGETIARWEVFLFLAILLQRVEFSVPLGVKVDMTPIYGLTMKHACCEHFQMQLRS
Km (other: CYP 1A1 supersomes): 40.2 ± 10 µM
kcat (other: CYP 1A1 supersomes): 0.0333 ± 0.00333 s⁻¹

B2: cDNA-expressed CYP 2C19 (Homo sapiens) (protein)
chain: MDPFVVLVLCLSCLLLLSIWRQSSGRGKLPPGPTPLPVIGNILQIDIKDVSKSLTNLSKIYGPVFTLYFGLERMVVLHGYEVVKEALIDLGEEFSGRGHFPLAERANRGFGIVFSNGKRWKEIRRFSLMTLRNFGMGKRSIEDRVQEEARCLVEELRKTKASPCDPTFILGCAPCNVICSIIFQKRFDYKDQQFLNLMEKLNENIRIVSTPWIQICNNFPTIIDYFPGTHNKLLKNLAFMESDILEKVKEHQESMDINNPRDFIDCFLIKMEKEKQNQQSEFTIENLVITAADLLGAGTETTSTTLRYALLLLLKHPEVTAKVQEEIERVIGRNRSPCMQDRGHMPYTDAVVHEVQRYIDLIPTSLPHAVTCDVKFRNYLIPKGTTILTSLTSVLHDNKEFPNPEMFDPRHFLDEGGNFKKSNYFMPFSAGKRICVGEGLARMELFLFLTFILQNFNLKSLIDPKDLDTTPVVNGFASVPPFYQLCFIPV
Km (other: CYP 2C19 supersomes): 15.3 ± 6.4 µM
kcat (other: CYP 2C19 supersomes): 0.0767 ± 0.0117 s⁻¹

B3: cDNA-expressed CYP19 (Homo sapiens) (protein)
chain: MVLEMLNPIHYNITSIVPEAMPAATMPVLLLTGLFLLVWNYEGTSSIPGPGYCMGIGPLISHGRFLWMGIGSACNYYNRVYGEFMRVWISGEETLIISKSSSMFHIMKHNHYSSRFGSKLGLQCIGMHEKGIIFNNNPELWKTTRPFFMKALSGPGLVRMVTVCAESLKTHLDRLEEVTNESGYVDVLTLLRRVMLDTSNTLFLRIPLDESAIVVKIQGYFDAWQALLIKPDIFFKISWLYKKYEKSVKDLKDAIEVLIAEKRRRISTEEKLEECMDFATELILAEKRGDLTRENVNQCILEMLIAAPDTMSVSLFFMLFLIAKHPNVEEAIIKEIQTVIGERDIKIDDIQKLKVMENFIYESMRYQPVVDLVMRKALEDDVIDGYPVKKGTNIILNIGRMHRLEFFPKPNEFTLENFAKNVPYRYFQPFGFGPRGCAGKYIAMVMMKAILVTLLRRFHVKTLQGQCVESIQKIHDLSLHPDETKNMLEMIFTPRNSDRCLEH
Km (other: CYP19 supersomes): 16.5 ± 3.3 µM
kcat (other: CYP19 supersomes): 0.00667 ± 0.0005 s⁻¹
